Values quoted from earlier work, collected in patent US20260159497A1, “SOLID FORMS OF A COMPLEMENT FACTOR B INHIBITOR” (Novartis Pharma AG, priority 2022, published 2026).

Settings: C3G patients; cited from earlier work

B1: Eculizumab: C5 monoclonal antibody that has been approved for treatment of aHUS (antibody, chains of the INN, looked up)
heavy: QVQLVQSGAEVKKPGASVKVSCKASGYIFSNYWIQWVRQAPGQGLEWMGEILPGSGSTEYTENFKDRVTMTRDTSTSTVYMELSSLRSEDTAVYYCARYFFGSSPNWYFDVWGQGTLVTVSSASTKGPSVFPLAPCSRSTSESTAALGCLVKDYFPEPVTVSWNSGALTSGVHTFPAVLQSSGLYSLSSVVTVPSSNFGTQTYTCNVDHKPSNTKVDKTVERKCCVECPPCPAPPVAGPSVFLFPPKPKDTLMISRTPEVTCVVVDVSQEDPEVQFNWYVDGVEVHNAKTKPREEQFNSTYRVVSVLTVLHQDWLNGKEYKCKVSNKGLPSSIEKTISKAKGQPREPQVYTLPPSQEEMTKNQVSLTCLVKGFYPSDIAVEWESNGQPENNYKTTPPVLDSDGSFFLYSRLTVDKSRWQEGNVFSCSVMHEALHNHYTQKSLSLSLG
light: DIQMTQSPSSLSASVGDRVTITCGASENIYGALNWYQQKPGKAPKLLIYGATNLADGVPSRFSGSGSGTDFTLTISSLQPEDFATYYCQNVLNTPLTFGQGTKVEIKRTVAAPSVFIFPPSDEQLKSGTASVVCLLNNFYPREAKVQWKVDNALQSGNSQESVTEQDSKDSTYSLSSTLTLSKADYEKHKVYACEVTHQGLSSPVTKSFNRGEC
With B1 as the molecule, how does the “improvement of disease when tested in C3G” value read?
Its value is “only a subset of patients who had higher level of C5b-9 (MAC) showed improvement of disease”.
